{
  "source": "paper PMC7693775",
  "about": "“AGTR1 Is Overexpressed in Neuroendocrine Neoplasms, Regulates Secretion and May Potentially Serve as a Target for Molecular Imaging and Therapy” (Cancers, 2020)",
  "target": "T1, ATII receptor (AGTR1, AGTR2) (Homo sapiens, UniProt P30556)",
  "T1 construct": "Consecutive cryosections of each tissue were incubated with the radioligand in the absence or presence of an excess of non-labeled ATII; from tissue; host or cells: flash-frozen cryosections of patient pancreatic and small-intestinal NEN and of control pancreas, small intestine and liver",
  "assay": "in vitro receptor autoradiography of tissue cryosections",
  "type": "binding",
  "settings": "1 µM competitor",
  "data": [
    {"smiles": "CCCCC(=O)N(Cc1ccc(-c2ccccc2-c2nnn[nH]2)cc1)[C@H](C(=O)O)C(C)C", "note": "[valsartan]", "values": [
      {"measurement": "displacement of 125I-ATII binding", "setting": "pancreatic NEN tissues #1, #4, #6, #8", "value": "clearly displaced"},
      {"measurement": "displacement of 125I-ATII binding", "setting": "small-intestinal NEN tissues", "value": "displaced"}
    ]}
  ]
}
